By UniProt entry, the sequences of proteins in these tests, tags left out.
UniProt P04049, whole entry Y340E/Y341E: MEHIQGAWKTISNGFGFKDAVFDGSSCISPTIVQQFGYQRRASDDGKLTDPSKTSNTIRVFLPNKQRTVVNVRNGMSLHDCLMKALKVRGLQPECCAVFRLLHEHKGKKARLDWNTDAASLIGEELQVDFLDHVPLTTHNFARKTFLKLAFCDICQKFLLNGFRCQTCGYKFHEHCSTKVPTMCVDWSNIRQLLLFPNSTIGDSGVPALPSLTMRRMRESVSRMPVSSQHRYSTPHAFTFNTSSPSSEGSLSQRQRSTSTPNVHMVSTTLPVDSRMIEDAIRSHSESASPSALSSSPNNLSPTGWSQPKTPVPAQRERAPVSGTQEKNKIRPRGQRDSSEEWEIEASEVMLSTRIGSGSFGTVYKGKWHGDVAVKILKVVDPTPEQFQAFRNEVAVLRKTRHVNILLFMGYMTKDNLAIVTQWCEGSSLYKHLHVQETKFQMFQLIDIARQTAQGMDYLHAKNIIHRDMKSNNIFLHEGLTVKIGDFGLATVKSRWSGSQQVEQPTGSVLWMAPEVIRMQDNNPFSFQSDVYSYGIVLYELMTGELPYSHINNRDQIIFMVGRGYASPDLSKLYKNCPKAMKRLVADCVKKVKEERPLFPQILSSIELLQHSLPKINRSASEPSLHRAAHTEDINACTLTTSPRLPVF

In patent US9694016B2 (Novartis AG, priority 2013, dated 2017):

Target: C-Raf FL (full-length C-Raf protein, Y340E and Y341E activating mutations) (Homo sapiens (Human), UniProt P04049, Y340E/Y341E)
Assay type: biochemical
Settings: AlphaScreen, 60 min pre-incubation, 1 hour reaction; read-out: c-Raf FL IC-50

Cc1ncc(NC(=O)c2ccnc(C3(C#N)CC3)c2)cc1-c1cc(N2CCOCC2)c(=O)n(C)n1 [Example 683, 2-(1-cyanocyclopropyl)-N-(6-methyl-5-(1-methyl-5-morpholino-6-oxo-1,6-dihydropyridazin-3-yl)pyridin-3-yl)isonicotinamide]
IC50: 3 nM

Cc1ncc(NC(=O)c2cccc(C(F)(F)F)c2)cc1-c1ccc(C#N)c(N2CCOCC2)c1 [Example 684]
IC50: 0.3 nM

Cc1ncc(NC(=O)c2cc(CN(C)C)cc(C(F)(F)F)c2)cc1-c1ccc(C#N)c(N2CCOCC2)c1 [Example 685, N-(5-(4-cyano-3-morpholinophenyl)-6-methylpyridin-3-yl)-3-((dimethylamino)methyl)-5-(trifluoromethyl)benzamide]
IC50: 1.9 nM

Cc1ncc(NC(=O)c2ccnc(C(C)C)c2)cc1-c1ccc(C#N)c(N2CCOCC2)c1 [Example 686, N-(5-(4-cyano-3-morpholinophenyl)-6-methylpyridin-3-yl)-2-isopropylisonicotinamide]
IC50: 0.2 nM

Cc1ncc(NC(=O)c2cccc(C(F)(F)F)c2)cc1-c1ccc(S(C)(=O)=O)c(N2CCOCC2)c1 [Example 687, N-(6-methyl-5-(4-(methylsulfonyl)-3-morpholinophenyl)pyridin-3-yl)-3-(trifluoromethyl)benzamide]
IC50: 0.2 nM

Cc1ccc(NC(=O)c2ccnc(C(C)(F)F)c2)cc1-c1cc(N2C3CCC2COC3)cc(=O)n1C [Example 691, N-(3-(4-(3-oxa-8-azabicyclo[3.2.1]octan-8-yl)-1-methyl-6-oxo-1,6-dihydropyridin-2-yl)-4-methylphenyl)-2-(1,1-difluoroethyl)isonicotinamide]
IC50: 3.2 nM

CCNc1nc(-c2cc(NC(=O)c3ccccc3)ccc2C)cc(N2CCOCC2)n1 [Example 695, N-(3-(2-(ethylamino)-6-morpholinopyrimidin-4-yl)-4-methylphenyl)benzamide]
IC50: 1.6 nM

CCNc1nc(-c2cc(NC(=O)c3ccnc(C(C)(C)C)c3)ccc2C)cc(N2CCOCC2)n1 [Example 696, 2-(tert-butyl)-N-(3-(2-(ethylamino)-6-morpholinopyrimidin-4-yl)-4-methylphenyl)isonicotinamide]
IC50: 1 nM

CCNc1nc(-c2cc(NC(=O)c3cccc(C(F)F)c3)ccc2C)cc(N2CCOCC2)n1 [Example 698, 3-(difluoromethyl)-N-(3-(2-(ethylamino)-6-morpholinopyrimidin-4-yl)-4-methylphenyl)benzamide]
IC50: 0.2 nM

CCNc1nc(-c2cc(NC(=O)c3cccc(-c4nnco4)c3)ccc2C)cc(N2CCOCC2)n1 [Example 699, N-(3-(2-(ethylamino)-6-morpholinopyrimidin-4-yl)-4-methylphenyl)-3-(1,3,4-oxadiazol-2-yl)benzamide]
IC50: 0.7 nM

CCNc1nc(-c2cc(NC(=O)c3cccc(C(C)(F)F)c3)ccc2C)cc(N2CCOCC2)n1 [Example 701, 3-(1,1-difluoroethyl)-N-(3-(2-(ethylamino)-6-morpholinopyrimidin-4-yl)-4-methylphenyl)benzamide]
IC50: 0.3 nM

CCNc1nc(-c2cc(NC(=O)c3ccnc(S(C)(=O)=O)c3)ccc2C)cc(N2CCOCC2)n1 [Example 702, N-(3-(2-(ethylamino)-6-morpholinopyrimidin-4-yl)-4-methylphenyl)-2-(methylsulfonyl)isonicotinamide]
IC50: 1.3 nM

CCNc1nc(-c2cc(NC(=O)c3cc(C(F)(F)F)c(=O)n(CC)c3)ccc2C)cc(N2CCOCC2)n1 [Example 703, 1-ethyl-N-(3-(2-(ethylamino)-6-morpholinopyrimidin-4-yl)-4-methylphenyl)-6-oxo-5-(trifluoromethyl)-1,6-dihydropyridine-3-carboxamide]
IC50: 0.4 nM

CCNc1nc(-c2cc(NC(=O)c3ccnc(C(C)(C)O)c3)ccc2C)cc(N2CCOCC2)n1 [Example 705, N-(3-(2-(ethylamino)-6-morpholinopyrimidin-4-yl)-4-methylphenyl)-2-(2-hydroxypropan-2-yl)isonicotinamide]
IC50: 1.4 nM

CCNc1nc(-c2cc(NC(=O)c3ccnc(C(F)(F)CC)c3)ccc2C)cc(N2CCOCC2)n1 [Example 706, 2-(1,1-difluoropropyl)-N-(3-(2-(ethylamino)-6-morpholinopyrimidin-4-yl)-4-methylphenyl)isonicotinamide]
IC50: 0.3 nM

CCNc1nc(-c2cc(NC(=O)c3ccnc(C4COC4)c3)ccc2C)cc(N2CCOCC2)n1 [Example 707, N-(3-(2-(ethylamino)-6-morpholinopyrimidin-4-yl)-4-methylphenyl)-2-(oxetan-3-yl)isonicotinamide]
IC50: 0.7 nM

CCNc1nc(-c2cc(NC(=O)c3ccnc(C4(C#N)CC4)c3)ccc2C)cc(N2CCOCC2)n1 [Example 708, 2-(1-cyanocyclopropyl)-N-(3-(2-(ethylamino)-6-morpholinopyrimidin-4-yl)-4-methylphenyl)isonicotinamide]
IC50: 0.1 nM

CCNc1nc(-c2cc(NC(=O)c3cnnc(C(C)(C)C#N)c3)ccc2C)cc(N2CCOCC2)n1 [Example 709, 6-(2-cyanopropan-2-yl)-N-(3-(2-(ethylamino)-6-morpholinopyrimidin-4-yl)-4-methylphenyl)pyridazine-4-carboxamide]
IC50: 1.3 nM

CCNc1nc(-c2cc(NC(=O)c3ccnc(C(C)(C)C#N)c3)ccc2C)cc(N2CCOC[C@H]2C)n1 [Example 711, (R)-2-(2-cyanopropan-2-yl)-N-(3-(2-(ethylamino)-6-(3-methylmorpholino)pyrimidin-4-yl)-4-methylphenyl)isonicotinamide]
IC50: 2.6 nM

CCNc1nc(-c2cc(NC(=O)c3ccnc(C(C)(C)O)c3)ccc2C)cc(N2CCOC[C@H]2C)n1 [Example 712, (R)—N-(3-(2-(ethylamino)-6-(3-methylmorpholino)pyrimidin-4-yl)-4-methylphenyl)-2-(2-hydroxypropan-2-yl)isonicotinamide]
IC50: 6.4 nM

CCNc1nc(-c2cc(NC(=O)c3ccnc(C(C)(C)O)c3)ccc2C)cc(N2CCOC[C@@H]2C)n1 [Example 713, (S)—N-(3-(2-(ethylamino)-6-(3-methylmorpholino)pyrimidin-4-yl)-4-methylphenyl)-2-(2-hydroxypropan-2-yl)isonicotinamide]
IC50: 1.4 nM

CCNc1nc(-c2cc(NC(=O)c3ccnc(C(C)(C)C#N)c3)ccc2C)cc(N2CCOC[C@@H]2C)n1 [Example 714, (S)-2-(2-cyanopropan-2-yl)-N-(3-(2-(ethylamino)-6-(3-methylmorpholino)pyrimidin-4-yl)-4-methylphenyl)isonicotinamide]
IC50: 0.9 nM

CCNc1nc(-c2cc(NC(=O)c3cccc(C(F)(F)F)c3)cnc2C)cc(N2CCOCC2)n1 [Example 716, N-(5-(2-(ethylamino)-6-morpholinopyrimidin-4-yl)-6-methylpyridin-3-yl)-3-(trifluoromethyl)benzamide]
IC50: 0.6 nM

CCNc1nc(-c2cc(NC(=O)c3ccnc(C(C)(C)C#N)c3)ccc2C)cc(N2CCOCC2)n1 [Example 717, 2-(2-cyanopropan-2-yl)-N-(3-(2-(ethylamino)-6-morpholinopyrimidin-4-yl)-4-methylphenyl)isonicotinamide]
IC50: 0.8 nM

CCNc1nc(-c2cc(NC(=O)c3ccnc(C(C)(C)C#N)c3)cnc2C)cc(N2CCOCC2)n1 [Example 718, 2-(2-cyanopropan-2-yl)-N-(5-(2-(ethylamino)-6-morpholinopyrimidin-4-yl)-6-methylpyridin-3-yl)isonicotinamide]
IC50: 2.3 nM

CCNc1nc(-c2cc(NC(=O)c3ccnc(C(F)F)c3)cnc2C)cc(N2CCOCC2)n1 [Example 721, 2-(difluoromethyl)-N-(5-(2-(ethylamino)-6-morpholinopyrimidin-4-yl)-6-methylpyridin-3-yl)isonicotinamide]
IC50: 0.9 nM

CCNc1nc(-c2cc(NC(=O)c3ccnc(C(C)(C)O)c3)cnc2C)cc(N2CCOCC2)n1 [Example 723, N-(5-(2-(ethylamino)-6-morpholinopyrimidin-4-yl)-6-methylpyridin-3-yl)-2-(2-hydroxypropan-2-yl)isonicotinamide]
IC50: 6.8 nM

CCNc1nc(-c2cc(NC(=O)c3ccnc(C(C)(C)C)c3)cnc2C)cc(N2CCOCC2)n1 [Example 724, 2-(tert-butyl)-N-(5-(2-(ethylamino)-6-morpholinopyrimidin-4-yl)-6-methylpyridin-3-yl)isonicotinamide]
IC50: 4.8 nM

CCNc1nc(-c2cc(NC(=O)c3cccc(C(C)(C)C#N)c3)cnc2C)cc(N2CCOCC2)n1 [Example 726, 3-(2-cyanopropan-2-yl)-N-(5-(2-(ethylamino)-6-morpholinopyrimidin-4-yl)-6-methylpyridin-3-yl)benzamide]
IC50: 2.2 nM

CCNc1nc(-c2cc(NC(=O)c3cnnc(C4CC4)c3)cnc2C)cc(N2CCOCC2)n1 [Example 727, 6-cyclopropyl-N-(5-(2-(ethylamino)-6-morpholinopyrimidin-4-yl)-6-methylpyridin-3-yl)pyridazine-4-carboxamide]
IC50: 2.7 nM

CCNc1nc(-c2cc(NC(=O)c3ccnc(C4(C#N)CC4)c3)cnc2C)cc(N2CCOCC2)n1 [Example 728, 2-(1-cyanocyclopropyl)-N-(5-(2-(ethylamino)-6-morpholinopyrimidin-4-yl)-6-methylpyridin-3-yl)isonicotinamide]
IC50: 0.8 nM

CCNc1nc(-c2cc(NC(=O)c3ccnc(C4COC4)c3)cnc2C)cc(N2CCOCC2)n1 [Example 729, N-(5-(2-(ethylamino)-6-morpholinopyrimidin-4-yl)-6-methylpyridin-3-yl)-2-(oxetan-3-yl)isonicotinamide]
IC50: 2.9 nM

CCNc1nc(-c2cc(NC(=O)c3cnnc(C(C)(C)C#N)c3)cnc2C)cc(N2CCOCC2)n1 [Example 730, 6-(2-cyanopropan-2-yl)-N-(5-(2-(ethylamino)-6-morpholinopyrimidin-4-yl)-6-methylpyridin-3-yl)pyridazine-4-carboxamide]
IC50: 7.5 nM

CCNc1nc(-c2cc(C(=O)Nc3cccc(C(C)(C)C#N)c3)ccc2C)cc(N2CCOCC2)n1 [Example 732, N-(3-(2-cyanopropan-2-yl)phenyl)-3-(2-(ethylamino)-6-morpholinopyrimidin-4-yl)-4-methylbenzamide]
IC50: 0.6 nM
